We go through one substance from paper PMC10337942.

Values joined by “and” are separate entries in the source; they are usually repeats but may differ in a detail not shown here. Equal entries are not always repeated.

The experiment has as its target His-ERC1(270–370) (mouse). The experiment is described as follows: AlphaScreen or HTRF; ALPHA saturation binding, apparent Kd: 5, 15 or 45 nM His-ERC1(270–370) titrated with GST-LL5β(381–510) (6.25-400 nM); anti-GST acceptor and anti-6xHis donor beads; 25 mM HEPES pH 7.4, 100 mM NaCl, 0.1% BSA, room temperature; one-site model, GST-LL5β values below 100 nM considered. (Bead proximity is the source of the signal in Alpha formats.)

As to GST-LL5β(381–510) (domain or fragment), the Kd is 99.8 nM and 110 nM and 78.8 nM.
